Earlier results as cited in patent US6359015B1, “Method for antagonizing inhibition effects of alcohol on cell adhesion” (The United States of America as represented by the …, priority 2000, dated 2002).

Conditions: published or calculated from molecular weight and density at 20° C.; cited from earlier work

With 1-butanol as the substance, how does the Vm molar volume read?
The Vm molar volume was 92 mL/mol.
